System: human TMXR MCF7 cells
Experiment: TMXR MCF7 mammary fat pad xenograft in NSG mice
Assay type: in vivo
Conditions: TMXR MCF7, oral gavage 5 days on/2 days off; MPT 35 mg/kg, TMX 4.2 mg/kg, CPP 3 mg/kg

SMILES: CC/C(=C(\c1ccccc1)c1ccc(OCCN(C)C)cc1)c1ccccc1 [TMX, tamoxifen]
- tumor growth: Tumors grew rapidly
